Laboratory results taken from patent publication US20020107404A1, “Sulfur-containing indirubin derivatives, their production and use” (Schering AG, priority 2000, published 2002).

Key:
CDK2/CycE = CDK2/CycE (Homo sapiens, UniProt P24941); assay: CDK2/CycE kinase assay; assay type: biochemical; conditions: read-out: CDK2 IC50; comparison table; recombinant CDK2/CycE, histone IIIS substrate, 0.5 μm ATP
MCF-7 = assay: Proliferation assay, MCF-7; conditions: read-out: MCF-7 IC50; comparison table; 4 days incubation, crystal violet
H460 = assay: Proliferation assay, H460; conditions: read-out: H460 IC50; comparison table; 4 days incubation, crystal violet
HCT116 = assay: Proliferation assay, HCT116; conditions: read-out: HCT116 IC50; comparison table; 4 days incubation, crystal violet
DU145 = assay: Proliferation assay, DU145; conditions: read-out: DU145 IC50; comparison table; 4 days incubation, crystal violet

IC50 (CDK2/CycE) | IC50 (MCF-7) | IC50 (H460) | IC50 (HCT116) | IC50 (DU145) | SMILES
0.9 µM | 6 µM | – | – | – | O=C1Nc2ccccc2/C1=C1/Nc2ccccc2C1=NO
3 µM | 1 µM | > 10 µM | 10 µM | > 10 µM | Cc1ccc2c(c1)/C(=C1/Nc3ccccc3C1=O)C(=O)N2
– | > 10 µM | > 10 µM | > 10 µM | > 10 µM | O=C1Nc2ccc(S(=O)(=O)O)cc2/C1=C1/Nc2ccccc2C1=O
